How the values were obtained:
[1] = target: Acetylcholinesterase (Homo sapiens) (UniProt P22303); experiment: Inhibition of human acetylcholinesterase at 1 mM by Ellman's method
[2] = target: Acetylcholinesterase (Homo sapiens) (UniProt P22303); experiment: Inhibition of human acetylcholinesterase assessed as remaining enzyme activity at 0.1 mM by Ellman's method
[3] = target: Acetylcholinesterase (Homo sapiens) (UniProt P22303); experiment: Reactivation of VX-inhibited human acetylcholinesterase at 1 mM in pH 7.4 phosphate buffer at 37 degC by Ellman's method; design: scale not given: the % may be the effect or the level left
[4] = target: Acetylcholinesterase (Homo sapiens) (UniProt P22303); experiment: Reactivation of VX-inhibited human acetylcholinesterase at 0.1 mM in pH 7.4 phosphate buffer at 37 degC by Ellman's method; design: scale not given: the % may be the effect or the level left
[5] = target: Acetylcholinesterase (Homo sapiens) (UniProt P22303); experiment: Reactivation of sarin-inhibited human acetylcholinesterase at 1 mM in pH 7.4 phosphate buffer at 37 degC by Ellman's method; design: scale not given: the % may be the effect or the level left
[6] = target: Acetylcholinesterase (Homo sapiens) (UniProt P22303); experiment: Reactivation of tabun-inhibited human acetylcholinesterase at 1 mM in pH 7.4 phosphate buffer at 37 degC by Ellman's method; design: scale not given: the % may be the effect or the level left
[7] = target: Acetylcholinesterase (Homo sapiens) (UniProt P22303); experiment: Reactivation of sarin-inhibited human acetylcholinesterase at 0.1 mM in pH 7.4 phosphate buffer at 37 degC by Ellman's method; design: scale not given: the % may be the effect or the level left
[8] = target: Acetylcholinesterase (Homo sapiens) (UniProt P22303); experiment: Reactivation of tabun-inhibited human acetylcholinesterase at 0.1 mM in pH 7.4 phosphate buffer at 37 degC by Ellman's method; design: scale not given: the % may be the effect or the level left
[9] = target: Acetylcholinesterase (Homo sapiens) (UniProt P22303); experiment: Reactivation of VX-inhibited human acetylcholinesterase assessed as reactivation rate constant
[10] = target: Acetylcholinesterase (Homo sapiens) (UniProt P22303); experiment: Reactivation of sarin-inhibited human acetylcholinesterase assessed as reactivation rate constant
[11] = target: Acetylcholinesterase (Homo sapiens) (UniProt P22303); experiment: Reactivation of tabun-inhibited human acetylcholinesterase assessed as reactivation rate constant
[12] = target: Acetylcholinesterase (Homo sapiens) (UniProt P22303); experiment: Reactivation of VX-inhibited human acetylcholinesterase assessed as second order reactivation rate constant
[13] = target: Acetylcholinesterase (Homo sapiens) (UniProt P22303); experiment: Reactivation of sarin-inhibited human acetylcholinesterase assessed as second order reactivation rate constant
[14] = target: Acetylcholinesterase (Homo sapiens) (UniProt P22303); experiment: Reactivation of tabun-inhibited human acetylcholinesterase assessed as second order reactivation rate constant
[15] = target: Acetylcholinesterase (Homo sapiens) (UniProt P22303); experiment: Inhibition of human acetylcholinesterase assessed as remaining enzyme activity at 1 mM measured after erythrocyte wash out by Ellman's method

Sequences of proteins named here, by UniProt entry; tags and fusion partners are left off. A change or cut given only in a name is not applied to a line headed by its entry.
UniProt P22303: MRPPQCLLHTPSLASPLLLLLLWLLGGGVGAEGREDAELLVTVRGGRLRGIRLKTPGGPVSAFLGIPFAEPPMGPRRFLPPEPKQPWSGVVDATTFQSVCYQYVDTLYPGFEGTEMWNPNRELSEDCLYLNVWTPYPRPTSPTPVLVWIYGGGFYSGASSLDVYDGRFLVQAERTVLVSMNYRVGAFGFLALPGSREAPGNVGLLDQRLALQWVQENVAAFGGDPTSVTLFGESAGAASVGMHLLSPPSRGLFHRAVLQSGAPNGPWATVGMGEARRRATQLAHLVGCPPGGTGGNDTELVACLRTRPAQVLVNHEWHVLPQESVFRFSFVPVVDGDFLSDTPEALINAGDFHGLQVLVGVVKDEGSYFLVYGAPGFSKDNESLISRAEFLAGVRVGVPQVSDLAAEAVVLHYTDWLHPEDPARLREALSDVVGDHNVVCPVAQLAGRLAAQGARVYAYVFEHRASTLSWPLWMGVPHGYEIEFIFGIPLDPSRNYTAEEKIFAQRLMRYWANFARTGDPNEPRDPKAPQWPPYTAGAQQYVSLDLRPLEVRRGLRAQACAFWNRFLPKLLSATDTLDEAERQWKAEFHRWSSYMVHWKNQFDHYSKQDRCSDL

SMILES | inhibition [1] | Activity [2] | Activity [3] | Activity [4] | Activity [5] | Activity [6] | Activity [7] | Activity [8] | Kr [9] | Kr [10] | Kr [11] | Kr [12] | Kr [13] | Kr [14] | Activity [15]
COc1cc2c(cc1OC)CN(CCCn1ccnc1/C=N/O)CC2 | < 40% | > 85% | 31% | -1% | -2% | 2% | -2% | -1% |  |  |  |  |  |  | 
O/N=C/c1ncc[nH]1 |  |  | 8% | 7% | 5% | 10% | 3% | 3% |  |  |  |  |  |  | 
COc1cc2c(cc1OC)C(c1ccccc1)N(CCCn1ccnc1/C=N/O)CC2 (configuration not stated) | < 40% | > 85% | 13% | 3% | 2% | 1% | 0% | 0% |  |  |  |  |  |  | 
COc1cc2c(cc1OC)C(c1ccccc1)N(CCCCCc1ccc(O)c(/C=N/O)n1)CC2 (configuration not stated) | 51% | > 85% | 84% | 68% | 68% | 68% | 64% | 54% | 0.22 min⁻¹ | 0.063 min⁻¹ | 0.027 min⁻¹ | 167 M⁻¹ s⁻¹ | 12 M⁻¹ s⁻¹ | 25.7 M⁻¹ s⁻¹ | 73%
COc1cc2c(cc1OC)C(c1ccccc1)N(CCCCCCn1ccnc1/C=N/O)CC2 (configuration not stated) |  |  |  |  |  |  |  |  | 0.21 min⁻¹ | 0.033 min⁻¹ | 0.012 min⁻¹ | 140 M⁻¹ s⁻¹ | 13.5 M⁻¹ s⁻¹ | 14.3 M⁻¹ s⁻¹ | 
COc1cc2c(cc1OC)CN(CCCCCCn1ccnc1/C=N/O)CC2 | < 40% | > 85% | 89% | 54% | 34% | 17% | 6% | 32% |  |  |  |  |  |  | 
COc1cc2c(cc1OC)C(c1ccccc1)N(CCCCn1ccnc1/C=N/O)CC2 (configuration not stated) | < 40% | > 85% | 47% | 6% | 27% | 5% | 4% | 3% |  |  |  |  |  |  | 
O/N=C/c1cc[n+](CCC[n+]2ccc(/C=N/O)cc2)cc1 |  |  |  |  |  |  |  |  |  |  | 0.056 min⁻¹ |  |  | 11.7 M⁻¹ s⁻¹ | 
O/N=C/c1cc[n+](C[n+]2ccc(/C=N/O)cc2)cc1 |  |  | 71% | 23% | 49% | 21% |  | 5% |  |  |  |  |  |  | 
COc1cc2c(cc1OC)CN(CCCCCn1ccnc1/C=N/O)CC2 | < 40% | > 85% | 89% | 46% | 14% | 7% | 2% | 5% |  |  |  |  |  |  | 
COc1cc2c(cc1OC)CN(CCCCn1ccnc1/C=N/O)CC2 | < 40% | > 85% | 68% | 28% | 8% | 1% | 0% | 1% |  |  |  |  |  |  | 
COc1cc2c(cc1OC)C(c1ccccc1)N(CCCCCn1ccnc1/C=N/O)CC2 (configuration not stated) | 36% | > 85% | 92% | 67% | 69% | 47% | 21% | 33% | 0.14 min⁻¹ | 0.04 min⁻¹ | 0.009 min⁻¹ | 95.8 M⁻¹ s⁻¹ | 4.67 M⁻¹ s⁻¹ | 6 M⁻¹ s⁻¹ | 95%

From ChEMBL document CHEMBL3352540, “New efficient imidazolium aldoxime reactivators for nerve agent-inhibited acetylcholinesterase” (2014)
